Marks after values point to notes of the source that are not given here.
Legend:
reg IIIb = experiment: Western blot analysis of reg IIIb in urine and serum of treated rats; conditions: albumin-depleted serum, rats treated during 6 days, to the detection limit
Procedure: Female Wistar rats were used weighing 200-250 g. The animals were allocated under controlled environmental conditions in individual metabolic cages, for individual urine sample collection every 24 hours. Normal feed and water were administered ad libitum. […] On day 7, the animals were anaesthetised with sodium pentobarbital and the kidneys were perfused by the aorta with saline (0.9% NaCl) to eliminate the blood. The kidneys were immediately dissected. One was frozen in liquid nitrogen and subsequently kept at −80° C. for Western blot studies, and the other was soaked in p-formaldehyde at 3.7% for histological studies. Blood samples were also obtained in heparinised capillaries at different time points by a small incision in the tail tip. Blood was centrifuged and serum was kept at −80° C. until use. Urine was cleared by centrifugation at 10,000 g and 4° C. during 10 minutes, and kept at −80° C. until use. […]

gelsolin = experiment: Western blot analysis of gelsolin in urine and serum of treated rats
Procedure: (§1) Female Wistar rats were used weighing 200-250 g. The animals were allocated under controlled environmental conditions in individual metabolic cages, for individual urine sample collection every 24 hours. Normal feed and water were administered ad libitum. […] On day 7, the animals were anaesthetised with sodium pentobarbital and the kidneys were perfused by the aorta with saline (0.9% NaCl) to eliminate the blood. The kidneys were immediately dissected. One was frozen in liquid nitrogen and subsequently kept at −80° C. for Western blot studies, and the other was soaked in p-formaldehyde at 3.7% for histological studies. Blood samples were also obtained in heparinised capillaries at different time points by a small incision in the tail tip. Blood was centrifuged and serum was kept at −80° C. until use. Urine was cleared by centrifugation at 10,000 g and 4° C. during 10 minutes, and kept at −80° C. until use.
Western blots were run with (i) urine samples (21 μl per sample), (ii) tissue extracts (100 μg total protein per sample) prepared by homogenizing the kidneys with a tissue mixer (Ultra-Turrax T8, IKA®-Werwe) at 4° C. in homogenization buffer (140 mM NaCl, 20 mM Tris-HCl pH=7.5, […] ethylenediaminetetraacetic acid—EDTA-, 10% glycerol, 1% Igepal CA-630, 1 μg/mL aprotinin, 1 μg/mL leupeptin, 1 μg/mL pepstatin A, 1 mM phenylmethylsulphonyl fluoride—PMSF—), or (iii) albumin-free blood serum. Albumin was removed from serum with a column-based, commercial kit based on the immunological retention of rat albumin (Qproteome Murine Albumin Depletion Kit, Quiagen). Samples were separated by electrophoresis in 10-15% acrylamide gels (Mini Protean II system, BioRad). Immediately, proteins were electrically transferred to an Immobilon-P membrane (Millipore). Membranes were probed with antibodies against KIM-1 (R&D Systems), bone morphogenetic protein 7 (BMP-7, Santa Cruz Biotechnology), NGAL (MBL), PAI-1 (BD Biosciences), reg IIIb (R&D Systems), and gelsolin (Santa Cruz Biotechnology).

Female Wistar rats = experiment: Gentamicin-induced kidney damage in rats: survival, body weight, serum and urine biochemical measurements
Procedure: as §1
Serum and urinary creatinine and urea nitrogen concentration were measured using commercial reactive strips (Roche Diagnostics) and the Reflotron® automated analyser (Roche Diagnostics). […] Urine protein concentration was measured by the Bradford method (Bradford, 1976. Anal Biochem, 72: 248-254). Urine NAG content was indirectly determined by the level of NAG activity. NAG enzymatic activity was determined by a colorimetric method based on the conversion of 3-cresolsulfonphthaleinyl-N-acetyl-D-glucosaminide into the purple 3-cresol-cresolsulfonphthaleinyl, measured at 580 nm using a plate photometer (Thermo). To measure NAG activity a commercial kit was used (Roche Diagnostics) following the manufacturer's instructions.

[1] = rats, gentamicin i.p. 150 mg/kg, after 7 days treatment

Substance: gentamicin
- Serum level of reg IIIb (reg IIIb): absent
- Serum level of gelsolin (gelsolin; albumin-depleted serum, rats treated during 6 days (FIG. 8-B)): slightly increases
- Day on which urinary gelsolin (~43 kDa fragment) appears (gelsolin; rats, time course of treatment, Western blot (FIG. 7)): 1 days
- ~43 kDa gelsolin fragment (t-gelsolin) band in urine (gelsolin; urine of rats with overt renal failure, Western blot (FIG. 6)): induces the appearance
- Renal failure (serum creatinine concentration and BUN) (Female Wistar rats; 6 rats per group, nephrotoxic regime (FIG. 6-B)): developed an overt renal failure
- Excretion of proteins relative to the control group (Female Wistar rats; rats, gentamicin group vs control group (Table 2)): more than 5 times
- BUN (blood urea nitrogen) (Female Wistar rats; [1]): 435.8 ± 47.9^a mg/dL
- Creatinine (plasma creatinine concentration) (Female Wistar rats; [1]): 3.3 ± 0.4^a mg/dL
- NAG excretion (Female Wistar rats; [1]): 744 ± 212^a UA/day
- Time at which significant renal damage occurs (serum creatinine, NAG excretion, proteinuria, KIM-1, NGAL, PAI-1) (Female Wistar rats; rats, time course of treatment (FIG. 7)): 4 days
